Molecules are shown by their SMILES. Some of the results follow.

The test system of the assay is A. baumannii ATCC 17978. Kind of assay: relative growth (fraction of control); higher = less inhibition. The note with it: 50 µM.
The compound `O=C1O[C@H](c2ccccc2)[C@H](c2ccccc2)N2[C@H]1[C@@H](C(=O)N1CCN(c3ncccn3)CC1)[C@]1(C(=O)Nc3ccc(C#CC4(O)CCCCCC4)cc31)[C@H]2c1ccccc1OCCO` yielded a relative growth of 1.19. To `C[C@@H](O)C#Cc1ccc2c(c1)O[C@H](CN(C)C(=O)C1CCCCC1)[C@@H](C)CN([C@@H](C)CO)S2(=O)=O` belongs 0.93; to `CN1CCc2c(c3ccccc3n2Cc2ccccc2)C1`, 0.905. To `Nc1nc(N)c2nc(CNc3ccc(C(=O)NC(CCC(=O)O)C(=O)O)cc3)cnc2n1` (stereo unspecified) belongs 0.988. Then `Cl.NC1=NCC2c3ccccc3Cc3ccccc3N12` (stereo unspecified), with 0.935; and `N=C(NO)C(=O)Nc1ccccc1`, with 0.89; and `O=C(CN1CCNCC1)c1ccc(F)cc1`, with 0.862.

`COc1cc2c(cc1OC)C(=O)C(CC1CCN(Cc3ccccc3)CC1)C2.Cl` (stereo unspecified): the relative growth is 0.161. To `NC(=O)N1C(=O)[C@H]2[C@H](C1=O)[C@H]1C=C(CCCO)[C@@H]2[C@H](c2cccs2)N1Cc1cc2c(cc1Br)OCO2` belongs 1.05; to `COc1ccc([C@@H]([C@H](Cc2ccccc2)OC(C)=O)N2C[C@@H](OC(C)=O)[C@@H]3[C@H]([C@@H]2Cc2ccccc2)N(C)O[C@H]3c2ccccc2)cc1`, 1.18. Then `CC(C)(C)[C@H]1COC(=O)[C@@H](NC(=O)OCC2c3ccccc3-c3ccccc32)CC=CC[C@@H](CC(=O)N[C@H](CO)Cc2ccccc2)C(=O)N1`, with 1.07; and `Cc1ccc(Nc2c(F)cccc2Cl)c(CC(=O)O)c1`, with 1.04; and `C[C@@H]1O[C@@H](O[C@H]2[C@@H](Oc3cc(O)c4c(c3)O[C@H](c3ccc(O)cc3)CC4=O)O[C@H](CO)[C@@H](O)[C@@H]2O)[C@H](O)[C@H](O)[C@H]1O`, with 1.04. `N#Cc1c(N)n(CCN)c2nc3ccccc3nc12` registered a relative growth of 0.932. With `COc1ccc([C@@H]([C@H](Cc2ccccc2)OC(C)=O)N2C[C@@H]3[C@H]([C@@H]2Cc2ccccc2)N(C)O[C@@]3(O)[C@@H](O)c2ccccc2)cc1`, the relative growth worked out at 1.17.

The compound `CC1(C)O[C@]2(C)CC[C@H]1CC2` came in with a relative growth of 1.03.

`COc1ccc([Si](C)(C)[C@H]2[C@H](CC(=O)N3Cc4ccccc4C[C@H]3CO)O[C@@]3(C(=O)N(Cc4ccc(N5C(=O)c6cccc7cccc5c67)cc4)c4ccccc43)[C@@H]2C)cc1` displayed a relative growth of 0.915. Then `NC(=O)c1cc(S(=O)(=O)N2CCOCC2)ccc1F`, with 0.993; and `Cc1cncc2cccc(S(=O)(=O)N[C@H]3CN[C@H](C(=O)NN)C3)c12`, with 0.989.

For `O=C(C[C@H]1CC=CCC[C@H](Cc2ccc(F)cc2)C(=O)OC[C@@H](Cc2ccccc2)NC1=O)NCCO`, the relative growth was found to be 1.17. `CO[C@H]1/C=C/O[C@@]2(C)Oc3c(C)c(O)c4c(O)c(c5c(nc6cc(C)ccn65)c4c3C2=O)NC(=O)/C(C)=C\C=C\[C@H](C)[C@H](O)[C@@H](C)C(O)[C@@H](C)[C@H](OC(C)=O)[C@@H]1C` (stereo partly specified) yielded a relative growth of 0.139.

The compound `COc1ccc(/C=C/C(=O)O)cc1OC` showed a relative growth of 1.05.

In the case of `CC12CC3CC(C)(C1)CC(N)(C3)C2.Cl`, the relative growth is 0.956. As to `COc1cccc(S(=O)(=O)Nc2ccc3c(c2)[C@@H]2C[C@@H](CC(=O)NC4CCCCC4)O[C@@H](CO)[C@@H]2O3)c1`, the relative growth stood at 0.867. Turning to `C[N+]1(CCCCC[N+]2(C)CCCC2)CCCC1.O=C([O-])C(O)C(O)C(=O)O.O=C([O-])C(O)C(O)C(=O)O`, the relative growth worked out at 1.17. Then `C[C@H]1CN=C(NS(=O)(=O)c2ccccc2)N1`, with 0.943. `CCCN1C[C@@H](C)[C@@H](OC)CN(C)C(=O)c2cc(NS(=O)(=O)c3cn(C)cn3)ccc2OC[C@H]1C`: the relative growth was 1.05. `O=C([O-])c1ccccc1-c1c2cc(I)c(=O)c(I)c-2oc2c(I)c([O-])c(I)cc12.[Na+].[Na+]` registered a relative growth of 1.04. Then `CC(C)C(=O)Nc1cccc(Cl)c1`, with 0.878; and `O=C(CN1CCOCC1)N[C@@H]1CC[C@@H](CCNC(=O)C2CCCCC2)O[C@@H]1CO`, with 1.01. `Cc1nccn1CCc1nc(N)nc(N)n1` yielded a relative growth of 1.04.

The compound `C=CCOC(=O)[C@@H]1[C@H]2C(=O)O[C@H](c3ccccc3)[C@H](c3ccccc3)N2[C@H](c2ccc(OCCOC(=O)[C@H]3C[C@H]4C(=O)N[C@@H](CCCC[N+](C)(C)C)C(=O)N4[C@H]3c3ccc(O)cc3)cc2)[C@@]12C(=O)Nc1ccc(I)cc12` showed a relative growth of 1.22. Then `COCCNC(=O)C[C@H]1CC[C@H]2[C@@H](COC[C@H](O)CN2S(=O)(=O)c2ccccc2C)O1`, with 0.841; and `O=C(OC[C@H]1O[C@@H](OC(=O)c2cc(O)c(O)c(OC(=O)c3cc(O)c(O)c(O)c3)c2)[C@H](OC(=O)c2cc(O)c(O)c(OC(=O)c3cc(O)c(O)c(O)c3)c2)[C@@H](OC(=O)c2cc(O)c(O)c(OC(=O)c3cc(O)c(O)c(O)c3)c2)[C@@H]1OC(=O)c1cc(O)c(O)c(OC(=O)c2cc(O)c(O)c(O)c2)c1)c1cc(O)c(O)c(OC(=O)c2cc(O)c(O)c(O)c2)c1`, with 1.08.

As to `C[C@H](CO)N1C[C@H](C)[C@@H](CN(C)C(=O)Cc2ccccn2)Oc2cc(C#C[C@@H](C)O)ccc2S1(=O)=O`, the relative growth was found to be 0.941. The compound `COc1cccc(S(=O)(=O)N2C[C@@H](O)COC[C@H]3O[C@@H](CC(=O)N4CCN(C)CC4)CC[C@@H]32)c1` yielded a relative growth of 0.986. To `COCC(=O)Nc1ccc2c(c1)[C@@H]1C[C@H](CC(=O)N3CCOCC3)O[C@H](CO)[C@@H]1O2` belongs 1.1; to `COCCNC(=O)c1cn(C)nc1OC`, 1.09; to `NS(=O)(=O)c1ccc(NC(=O)C2CC2)cc1`, 0.83. To `COCC(=O)N(C)C[C@H]1Oc2cc(C#Cc3ccccc3)ccc2S(=O)(=O)N([C@@H](C)CO)C[C@@H]1C` belongs 0.835; to `CC1(C)S[C@@H]2[C@H](NC(=O)[C@H](N)c3ccc(O)cc3)C(=O)N2[C@H]1C(=O)O`, 1.08; to `CO[C@H]1CN(C)C(=O)c2cc(NS(C)(=O)=O)ccc2OC[C@@H](C)N(C(=O)C2CCCCC2)C[C@H]1C`, 1.01. Then `CC(C)=CCC/C(C)=C/CC1=C(C)C(=O)c2ccccc2C1=O`, with 0.926; and `C=C1C(=O)O[C@@H]2[C@H]3C(=CO[C@@H]4O[C@H](CO)[C@@H](O)[C@H](O)[C@H]4O)CC(=O)C3=C(C)CC[C@@H]12`, with 1.02. Turning to `Cl.Cl.NCCCCN`, the relative growth is 1.03. Then `NCc1ccc(-c2nc3ccccc3o2)cc1`, with 0.844.

(Values after published antibiotic growth screens (doi:10.1038/s41589-023-01349-8).)
